Measurements from ChEMBL document CHEMBL6114975, “Discovery of 2,4-quinazolinedione derivatives as LC3B recruiters in the facilitation of protein complex degradations” (Eur J Med Chem, 2025).
Calls of active or inactive are those of the source. No cut-off for these calls is given here.

By UniProt entry, the sequences of proteins in these tests, tags left out. Where a name states a change or a piece, a line headed by the entry shows the natural chain unless it says otherwise.
UniProt O75530, whole entry, looked up: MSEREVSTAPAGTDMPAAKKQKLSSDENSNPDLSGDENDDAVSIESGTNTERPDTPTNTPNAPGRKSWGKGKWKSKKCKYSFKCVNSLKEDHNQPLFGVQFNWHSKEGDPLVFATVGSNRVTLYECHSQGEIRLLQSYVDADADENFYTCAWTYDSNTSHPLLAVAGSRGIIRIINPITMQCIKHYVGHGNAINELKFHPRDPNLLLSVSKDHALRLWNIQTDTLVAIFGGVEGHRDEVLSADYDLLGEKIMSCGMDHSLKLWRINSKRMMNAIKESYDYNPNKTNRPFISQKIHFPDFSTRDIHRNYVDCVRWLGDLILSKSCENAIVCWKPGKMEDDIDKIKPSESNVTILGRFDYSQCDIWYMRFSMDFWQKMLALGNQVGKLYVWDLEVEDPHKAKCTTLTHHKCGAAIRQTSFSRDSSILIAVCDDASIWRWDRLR
UniProt O60563, whole entry, looked up: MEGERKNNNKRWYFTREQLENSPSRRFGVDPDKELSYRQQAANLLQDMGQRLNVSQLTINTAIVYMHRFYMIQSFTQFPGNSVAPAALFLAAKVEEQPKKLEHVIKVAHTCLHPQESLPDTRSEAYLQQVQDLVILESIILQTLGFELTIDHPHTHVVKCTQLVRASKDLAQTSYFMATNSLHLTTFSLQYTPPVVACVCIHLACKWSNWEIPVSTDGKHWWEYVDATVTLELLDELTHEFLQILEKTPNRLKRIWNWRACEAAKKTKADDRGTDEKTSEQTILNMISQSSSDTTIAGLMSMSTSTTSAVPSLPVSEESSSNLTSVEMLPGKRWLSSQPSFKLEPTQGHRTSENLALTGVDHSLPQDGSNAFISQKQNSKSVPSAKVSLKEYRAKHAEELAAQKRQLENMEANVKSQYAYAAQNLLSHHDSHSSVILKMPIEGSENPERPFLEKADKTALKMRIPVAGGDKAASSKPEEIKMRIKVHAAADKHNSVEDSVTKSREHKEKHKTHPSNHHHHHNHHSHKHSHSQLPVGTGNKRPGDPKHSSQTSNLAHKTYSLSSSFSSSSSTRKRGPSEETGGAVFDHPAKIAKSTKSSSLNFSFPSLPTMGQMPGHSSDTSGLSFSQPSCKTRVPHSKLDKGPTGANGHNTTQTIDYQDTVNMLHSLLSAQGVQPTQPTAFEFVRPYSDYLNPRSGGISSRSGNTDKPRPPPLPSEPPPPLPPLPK
UniProt P50750, whole entry, looked up: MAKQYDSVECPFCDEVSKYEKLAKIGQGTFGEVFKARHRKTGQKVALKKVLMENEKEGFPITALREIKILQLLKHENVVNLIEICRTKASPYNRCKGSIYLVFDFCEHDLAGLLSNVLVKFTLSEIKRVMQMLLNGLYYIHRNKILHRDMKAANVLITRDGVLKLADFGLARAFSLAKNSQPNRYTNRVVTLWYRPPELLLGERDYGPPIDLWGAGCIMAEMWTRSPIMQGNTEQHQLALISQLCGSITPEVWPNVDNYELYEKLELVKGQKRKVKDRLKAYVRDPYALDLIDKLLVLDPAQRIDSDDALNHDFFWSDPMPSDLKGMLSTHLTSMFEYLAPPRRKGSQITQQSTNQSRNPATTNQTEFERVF
UniProt Q15022: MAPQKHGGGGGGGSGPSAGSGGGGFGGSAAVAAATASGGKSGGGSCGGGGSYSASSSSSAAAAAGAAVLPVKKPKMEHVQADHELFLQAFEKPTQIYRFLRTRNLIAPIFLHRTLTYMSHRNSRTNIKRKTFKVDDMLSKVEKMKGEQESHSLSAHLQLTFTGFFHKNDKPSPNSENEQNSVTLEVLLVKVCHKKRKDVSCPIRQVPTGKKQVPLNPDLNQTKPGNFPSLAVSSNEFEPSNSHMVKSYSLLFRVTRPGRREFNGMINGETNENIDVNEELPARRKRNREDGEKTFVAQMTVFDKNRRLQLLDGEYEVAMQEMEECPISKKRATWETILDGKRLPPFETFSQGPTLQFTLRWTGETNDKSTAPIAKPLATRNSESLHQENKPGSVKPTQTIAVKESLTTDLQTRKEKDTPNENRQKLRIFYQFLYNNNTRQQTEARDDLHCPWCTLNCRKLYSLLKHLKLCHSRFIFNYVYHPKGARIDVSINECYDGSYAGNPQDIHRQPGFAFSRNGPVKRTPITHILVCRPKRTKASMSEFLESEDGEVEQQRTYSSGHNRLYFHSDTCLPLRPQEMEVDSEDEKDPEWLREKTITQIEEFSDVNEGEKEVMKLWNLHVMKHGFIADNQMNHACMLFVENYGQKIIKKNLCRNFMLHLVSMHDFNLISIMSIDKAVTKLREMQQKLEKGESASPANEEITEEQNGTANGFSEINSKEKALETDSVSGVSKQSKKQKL
UniProt Q15910, whole entry, looked up: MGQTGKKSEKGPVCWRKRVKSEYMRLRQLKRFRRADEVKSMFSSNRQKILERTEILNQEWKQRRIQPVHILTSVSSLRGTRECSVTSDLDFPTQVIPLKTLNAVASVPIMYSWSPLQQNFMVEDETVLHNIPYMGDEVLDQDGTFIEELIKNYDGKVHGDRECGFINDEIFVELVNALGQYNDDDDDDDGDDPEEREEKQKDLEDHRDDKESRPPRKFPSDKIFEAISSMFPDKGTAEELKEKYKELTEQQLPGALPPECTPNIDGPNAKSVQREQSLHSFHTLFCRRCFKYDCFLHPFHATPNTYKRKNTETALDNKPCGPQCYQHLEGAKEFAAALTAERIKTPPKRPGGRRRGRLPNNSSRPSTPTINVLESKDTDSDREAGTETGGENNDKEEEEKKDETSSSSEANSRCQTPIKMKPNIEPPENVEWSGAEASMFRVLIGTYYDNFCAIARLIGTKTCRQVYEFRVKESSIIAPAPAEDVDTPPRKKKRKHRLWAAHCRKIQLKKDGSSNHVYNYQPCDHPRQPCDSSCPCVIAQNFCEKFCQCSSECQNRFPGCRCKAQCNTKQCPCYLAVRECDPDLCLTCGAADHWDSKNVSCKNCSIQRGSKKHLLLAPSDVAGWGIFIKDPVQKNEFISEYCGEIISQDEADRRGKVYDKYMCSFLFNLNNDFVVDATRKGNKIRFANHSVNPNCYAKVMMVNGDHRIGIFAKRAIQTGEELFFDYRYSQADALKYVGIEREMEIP
UniProt Q92800, whole entry, looked up: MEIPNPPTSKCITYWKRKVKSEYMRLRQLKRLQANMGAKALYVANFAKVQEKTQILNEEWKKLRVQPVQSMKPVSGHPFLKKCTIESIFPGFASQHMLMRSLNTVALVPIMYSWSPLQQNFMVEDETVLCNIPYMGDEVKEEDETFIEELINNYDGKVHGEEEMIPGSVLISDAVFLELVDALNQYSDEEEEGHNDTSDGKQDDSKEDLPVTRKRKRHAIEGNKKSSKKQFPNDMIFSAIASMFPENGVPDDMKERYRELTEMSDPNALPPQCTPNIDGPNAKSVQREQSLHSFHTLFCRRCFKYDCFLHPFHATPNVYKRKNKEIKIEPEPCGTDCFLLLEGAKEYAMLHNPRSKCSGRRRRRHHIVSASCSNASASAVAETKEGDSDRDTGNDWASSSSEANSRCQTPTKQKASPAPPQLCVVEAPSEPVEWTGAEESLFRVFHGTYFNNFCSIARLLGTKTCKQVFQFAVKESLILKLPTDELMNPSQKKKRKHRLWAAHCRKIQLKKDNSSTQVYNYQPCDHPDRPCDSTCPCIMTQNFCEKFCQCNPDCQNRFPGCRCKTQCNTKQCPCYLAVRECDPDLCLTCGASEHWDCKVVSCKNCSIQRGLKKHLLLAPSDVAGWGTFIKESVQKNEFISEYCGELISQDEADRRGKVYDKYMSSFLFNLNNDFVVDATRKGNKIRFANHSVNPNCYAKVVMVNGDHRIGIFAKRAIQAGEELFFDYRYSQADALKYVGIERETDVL

Legend:
Assay type in all cases: cell-based
[1] = biological target: Polycomb protein EED (Homo sapiens) (UniProt O75530); test: Induction of EED degradation in human U2932 cells at 10 uM incubated for 48 hrs by immunoblotting analysis
[2] = test system: U2932; test: Induction of EZH1 degradation in human U2932 cells at 10 uM incubated for 48 hrs by immunoblotting analysis
[3] = test system: U2932; test: Induction of EZH2 degradation in human U2932 cells at 10 uM incubated for 48 hrs by immunoblotting analysis
[4] = biological target: T1, Microtubule-associated protein 1 light chain 3 beta/Cyclin-T1/Cyclin-dependent kinase 9 (Homo sapiens) (UniProt O60563+P50750+Q9GZQ8); test: ATTEC activity at LC3B/CDK9/Cyclin T1 in human WSUDLCL2 cells assessed as degradation of Cyclin T1 at 100 nM incubated for 24 hrs by immunoblot analysis
[5] = biological target: T1, Microtubule-associated protein 1 light chain 3 beta/Cyclin-T1/Cyclin-dependent kinase 9 (Homo sapiens); test: ATTEC activity at LC3B/CDK9/Cyclin T1 in human WSUDLCL2 cells assessed as downregulation of Mcl-1 expression at 100 nM incubated for 24 hrs by immunoblotting analysis
[6] = biological target: T1, Microtubule-associated protein 1 light chain 3 beta/Cyclin-T1/Cyclin-dependent kinase 9 (Homo sapiens); test: ATTEC activity at LC3B/CDK9/Cyclin T1 in human WSUDLCL2 cells assessed as CDK9 degradation at 50 nM preincubated with MG132 followed by compound addition measured after 24 hrs by immunoblotting analysis
[7] = biological target: T1, Microtubule-associated protein 1 light chain 3 beta/Cyclin-T1/Cyclin-dependent kinase 9 (Homo sapiens); test: ATTEC activity at LC3B/CDK9/Cyclin T1 in human WSUDLCL2 cells assessed as CDK9 degradation at 50 nM preincubated with bafilomycin A1 followed by compound addition measured after 24 hrs by immunoblotting analysis
[8] = biological target: T1, Microtubule-associated protein 1 light chain 3 beta/Cyclin-T1/Cyclin-dependent kinase 9 (Homo sapiens); test: ATTEC activity at LC3B/CDK9/Cyclin T1 in LC3B knockout HEK293T cells assessed as degradation of CDK9 at 50 nM incubated for 24 hrs by immunoblotting analysis
[9] = biological target: Microtubule-associated protein 1 light chain 3 beta/Cyclin-dependent kinase 9 (Homo sapiens) (UniProt P50750+Q9GZQ8); test: ATTEC activity at LC3B/CDK9 in human WSUDLCL2 cells assessed as degradation of CDK9 at 1 uM incubated for 24 hrs by immunoblot analysis
[10] = biological target: Microtubule-associated protein 1 light chain 3 beta/Polycomb protein SUZ12 (Homo sapiens) (UniProt Q15022+Q9GZQ8); test: ATTEC activity at LC3B/SUZ12 in human U2932 cells assessed as SUZ12 degradation at 10 uM incubated for 48 hrs by immunoblotting analysis
[11] = biological target: Microtubule-associated protein 1 light chain 3 beta/Histone-lysine N-methyltransferase EZH2 (Homo sapiens) (UniProt Q15910+Q9GZQ8); test: ATTEC activity at LC3B/EZH2 in human U2932 cells assessed as EZH2 degradation at 10 uM incubated for 48 hrs by immunoblotting analysis
[12] = biological target: Microtubule-associated protein 1 light chain 3 beta/Histone-lysine N-methyltransferase EZH1 (Homo sapiens) (UniProt Q92800+Q9GZQ8); test: ATTEC activity at LC3B/EZH1 in human U2932 cells assessed as EZH1 degradation at 10 uM incubated for 48 hrs by immunoblotting analysis
[13] = biological target: Microtubule-associated protein 1 light chain 3 beta/Polycomb protein EED (Homo sapiens) (UniProt O75530+Q9GZQ8); test: ATTEC activity at LC3B/EED in human U2932 cells assessed as EED degradation at 10 uM incubated for 48 hrs by immunoblotting analysis
[14] = biological target: T1, Microtubule-associated protein 1 light chain 3 beta/Cyclin-T1/Cyclin-dependent kinase 9 (Homo sapiens); test: ATTEC activity at LC3B/CDK9/Cyclin T1 in human WSUDLCL2 cells assessed as degradation of CDK9 at 100 nM incubated for 24 hrs by immunoblotting analysis

For `Cc1cc(C)c(CNC(=O)c2cc(-c3ccc(N4CCN(CCNC(=O)CCOCCNc5cccc6c5C(=O)N(C5CCC(=O)NC5=O)C6=O)CC4)nc3)cc3c2cnn3C(C)C)c(=O)[nH]1` (configuration not stated), the Activity [1] was “inactive”, the Activity [2] was “inactive” and the Activity [3] was “Active”.
For `CC(C)(C)c1cnc(CSc2cnc(NC(=O)C3CCN(CCCn4c(=O)n(Cc5ccncc5)c(=O)c5cccnc54)CC3)s2)o1`, the Activity [4] was “Active” and the Activity [5] was “Active”.
With `CC(C)(C)c1cnc(CSc2cnc(NC(=O)C3CCN(CCCn4c(=O)n(Cc5ccncc5)c(=O)c5ccc(Cl)cc54)CC3)s2)o1` the Activity [6] was “Active”, the Activity [7] was “Active; Degradation Of Cdk9 Is Partially Rescued” and the Activity [8] was “inactive”. The Activity [4] was “Active” and the Activity [5] was “Active”.
With `CC(C)(C)c1cnc(CSc2cnc(NC(=O)C3CCN(CCn4c(=O)n(Cc5ccccc5)c(=O)c5ccc(Cl)cc54)CC3)s2)o1` the Activity [9] was “Active”.
For `CC(C)(C)c1cnc(CSc2cnc(NC(=O)C3CCN(CCCn4c(=O)n(Cc5ccccc5)c(=O)c5cccnc54)CC3)s2)o1`, the Activity [4] was “Active” and the Activity [5] was “Active”.
For `CCn1c(=O)c2ccc(Cl)cc2n(CCCN2CCC(C(=O)Nc3ncc(SCc4ncc(C(C)(C)C)o4)s3)CC2)c1=O`, the Activity [6] was “Active”, the Activity [7] was “Active; Degradation Of Cdk9 Is Partially Rescued” and the Activity [8] was “inactive”. For the same molecule, the Activity [4] was “Active” and the Activity [5] was “Active”.
For `CCn1c(=O)c2cccnc2n(CCCN2CCC(C(=O)Nc3ncc(SCc4ncc(C(C)(C)C)o4)s3)CC2)c1=O`, the Activity [4] was “Active” and the Activity [5] was “Active”.
With `CCn1c(=O)c2ccc(Cl)cc2n(CCOCCOCCN2CCN(c3ccc(-c4cc(C(=O)NCc5c(C)cc(C)[nH]c5=O)c5cnn(C(C)C)c5c4)cn3)CC2)c1=O` the Activity [10] was “Active”, the Activity [11] was “Active” and the Activity [12] was “Active”. The Activity [13] was “Active”.
`CC(C)(C)c1cnc(CSc2cnc(NC(=O)C3CCN(CC(=O)NCCOCCOCCOCCNc4cccc5c4C(=O)N(C4CCC(=O)NC4=O)C5=O)CC3)s2)o1` (configuration not stated) was tested, and the Activity [14] was “Active; Compound Exhibited Dramatic Degradation”, the Activity [4] was “Active; Compound Exhibited Slight Degradation” and the Activity [5] was “Active; Compound Exhibited Slight Downregulation”.
